Measurements taken from ChEMBL document CHEMBL3046773 (Med Chem Res, 2013).

Chains of the proteins cited; added tags and fusions are not shown.
UniProt O35505, whole entry, looked up: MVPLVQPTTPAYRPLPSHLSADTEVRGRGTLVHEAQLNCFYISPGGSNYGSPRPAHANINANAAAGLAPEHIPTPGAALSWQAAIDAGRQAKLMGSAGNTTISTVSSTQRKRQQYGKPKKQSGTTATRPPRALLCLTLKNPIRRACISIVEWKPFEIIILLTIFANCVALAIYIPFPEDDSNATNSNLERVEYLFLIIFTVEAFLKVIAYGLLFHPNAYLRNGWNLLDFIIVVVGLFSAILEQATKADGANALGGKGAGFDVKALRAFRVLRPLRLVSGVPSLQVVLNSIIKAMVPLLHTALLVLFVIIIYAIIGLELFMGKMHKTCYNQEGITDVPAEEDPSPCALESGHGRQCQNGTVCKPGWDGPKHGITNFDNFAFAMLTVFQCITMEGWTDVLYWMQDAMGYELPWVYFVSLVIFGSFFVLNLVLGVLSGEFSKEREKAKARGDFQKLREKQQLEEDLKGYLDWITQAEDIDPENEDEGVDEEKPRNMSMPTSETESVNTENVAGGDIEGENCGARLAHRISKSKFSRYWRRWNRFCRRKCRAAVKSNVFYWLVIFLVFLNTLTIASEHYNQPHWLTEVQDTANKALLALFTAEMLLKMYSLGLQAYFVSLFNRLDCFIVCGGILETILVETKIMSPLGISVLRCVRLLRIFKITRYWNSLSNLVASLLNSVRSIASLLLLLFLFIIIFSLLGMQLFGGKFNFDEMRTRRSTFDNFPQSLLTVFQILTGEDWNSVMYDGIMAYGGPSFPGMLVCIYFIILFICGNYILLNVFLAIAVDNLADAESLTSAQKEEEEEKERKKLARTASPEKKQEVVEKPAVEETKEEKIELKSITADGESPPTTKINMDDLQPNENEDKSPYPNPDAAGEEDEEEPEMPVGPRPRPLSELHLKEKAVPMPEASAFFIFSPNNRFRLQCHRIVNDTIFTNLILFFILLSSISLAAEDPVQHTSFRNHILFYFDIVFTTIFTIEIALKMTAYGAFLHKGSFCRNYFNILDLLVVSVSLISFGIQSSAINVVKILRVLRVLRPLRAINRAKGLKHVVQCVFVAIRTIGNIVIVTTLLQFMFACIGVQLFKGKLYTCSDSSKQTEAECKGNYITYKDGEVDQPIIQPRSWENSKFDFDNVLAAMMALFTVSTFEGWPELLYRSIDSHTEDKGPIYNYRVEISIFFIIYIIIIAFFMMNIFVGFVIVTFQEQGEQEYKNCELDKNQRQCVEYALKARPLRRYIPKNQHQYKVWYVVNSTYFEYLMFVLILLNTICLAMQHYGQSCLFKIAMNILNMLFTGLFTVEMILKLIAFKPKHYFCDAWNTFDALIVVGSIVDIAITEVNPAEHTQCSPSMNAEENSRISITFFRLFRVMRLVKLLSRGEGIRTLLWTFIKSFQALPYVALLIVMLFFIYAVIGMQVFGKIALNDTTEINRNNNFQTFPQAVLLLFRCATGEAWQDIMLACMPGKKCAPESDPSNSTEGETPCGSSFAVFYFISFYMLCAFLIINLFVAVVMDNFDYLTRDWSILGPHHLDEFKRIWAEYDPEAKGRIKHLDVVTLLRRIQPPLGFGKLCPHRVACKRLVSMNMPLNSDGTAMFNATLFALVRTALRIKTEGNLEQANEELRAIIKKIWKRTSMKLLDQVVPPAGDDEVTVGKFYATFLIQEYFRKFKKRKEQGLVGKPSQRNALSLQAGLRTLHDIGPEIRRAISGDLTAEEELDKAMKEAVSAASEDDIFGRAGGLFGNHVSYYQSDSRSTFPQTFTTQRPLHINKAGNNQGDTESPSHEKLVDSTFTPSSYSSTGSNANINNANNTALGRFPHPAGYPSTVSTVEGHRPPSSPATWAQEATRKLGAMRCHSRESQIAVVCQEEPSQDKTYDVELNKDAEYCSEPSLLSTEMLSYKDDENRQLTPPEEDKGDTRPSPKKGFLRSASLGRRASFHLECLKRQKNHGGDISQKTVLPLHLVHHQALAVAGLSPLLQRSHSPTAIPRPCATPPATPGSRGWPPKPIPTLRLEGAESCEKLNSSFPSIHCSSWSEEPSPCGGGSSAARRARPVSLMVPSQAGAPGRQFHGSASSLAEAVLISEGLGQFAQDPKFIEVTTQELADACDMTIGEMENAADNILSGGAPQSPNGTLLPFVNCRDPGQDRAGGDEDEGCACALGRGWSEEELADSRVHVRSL

Target: Voltage-dependent L-type calcium channel subunit alpha-1C (Cavia porcellus, UniProt O35505)
Assay: Antagonist activity at calcium channel in Cavia porcellus (guinea pig) ileum assessed as inhibition KCl-induced muscle contraction

For `CCOC1Sc2ccccc2C(O)C1Cl` (centres undefined), which “inhibition (INH)” value is on record?
The value was “Dose-dependent effect”.

`CC(C)OC1Sc2ccccc2C(O)C1Cl` (centres undefined) was tested. Which “inhibition (INH)” value did it give?
The value was “Dose-dependent effect”.

How did the “inhibition (INH)” value turn out when `CCCC(C)COC1Sc2ccccc2C(O)C1Cl` (centres undefined) was run?
The value was “Dose-dependent effect”.

`CCCCOC1Sc2ccccc2C(O)C1Cl` (centres undefined) was tested. Which “inhibition (INH)” value did it give?
The value was “Dose-dependent effect”.
